Experimental findings from ChEMBL document CHEMBL1141597, “2-Alkyl-4-aryl-pyrimidine fused heterocycles as selective 5-HT2A antagonists” (Bioorg Med Chem Lett, 2008) are described below.

Protein sequences, listed by entry. Tags and fused reporters are not part of them.
UniProt P28223, whole entry: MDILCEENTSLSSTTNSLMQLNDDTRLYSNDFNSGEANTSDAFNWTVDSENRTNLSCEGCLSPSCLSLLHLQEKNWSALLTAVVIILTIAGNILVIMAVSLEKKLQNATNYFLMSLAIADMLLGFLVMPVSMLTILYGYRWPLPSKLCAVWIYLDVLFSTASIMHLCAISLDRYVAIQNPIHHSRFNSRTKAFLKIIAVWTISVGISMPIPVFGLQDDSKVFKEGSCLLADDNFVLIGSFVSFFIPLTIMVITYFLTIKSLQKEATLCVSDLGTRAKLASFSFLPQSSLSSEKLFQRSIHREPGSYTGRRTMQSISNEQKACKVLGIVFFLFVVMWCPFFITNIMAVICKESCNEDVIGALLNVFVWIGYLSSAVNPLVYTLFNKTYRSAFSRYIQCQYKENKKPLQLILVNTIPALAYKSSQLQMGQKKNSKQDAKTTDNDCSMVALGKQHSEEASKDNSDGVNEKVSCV

The target in the experiment is 5-hydroxytryptamine receptor 2A (Homo sapiens, UniProt P28223). Nature of the experiment: Displacement of [3H]ketanserin from human recombinant 5HT2A receptor expressed in mouse NIH3T3 cells. In kind it is cell-based. (In general: Loss of bound radioactivity is the signal in a displacement assay; it reports binding, not function.)

Turning to `CC(C)Cc1nc2c(c(-c3ccc(F)cc3)n1)CNCC2`, the Ki was 29 nM.

In the case of `Fc1ccc(-c2nc(Cc3ccccc3)nc3c2CNCCC3)cc1`, the inhibition constant Ki turned out to be 130 nM.

As a reminder, the Ki is a measure of affinity in units of concentration, obtained from inhibition or displacement.
